Molecular target: OPH (Brevundimonas diminuta, UniProt P0A434)
Assay: OPH detection sensitivity and kinetics of OPH mediated hydrolysis (Example 7)
Details: 100 μM DEPFMU or 1.2 mM paraoxon, 30 min at 37° C.; assuming 100% purity and activity

Compound | level of reliable detection of OPH per well
CCOP(=O)(OCC)Oc1ccc([N+](=O)[O-])cc1 | around 100 fmol
7-diethyl-phospho-6,8-difluoro-4-methylumbelliferyl | 1 fmol

Reference: patent publication US20100255521A1, “Fluorescent substrates for Detecting organophosphatase enzyme activity” (published 2010)
